From patent EP4665839B1, “CELL CULTURE MEDIA” (dated 2026)
Blank lines part the entries; values can stand above or below the compound they belong to.

How the values were obtained:
CHOK1 GS clone A = assay: Batch cell culture, Tyr replaced by derivative; settings: for titer production / maximum IgG concentration: after seven days; for maximum VCD: after six days (negative control: after seven days)
Method: For cell culture experiments, a CHOK1 GS suspension cell line expressing a human IgG1, was used. Cells were cultivated in triplicates or quadruplicates in modified EX-CELL® Advanced HD Perfusion Medium (Merck Darmstadt, Germany) using 50 mL spin tubes with a starting culture volume of 30 mL and a seeding density of 0.3x10^6 viable cells/mL. Incubation was carried out at 37°C, 5% CO2, 80 % humidity and an agitation of 320 rpm. The Tyr derivatives were added in the CCM (modified EX-CELL® Advanced HD Perfusion Medium depleted in Tyr) instead of the amino acid Tyr. The pH of the CCM was neutral (pH 7.3±0.1). […] . Besides, Pro-Tyr, Gly-Tyr and Tyr-His were also tested in comparison to N-L-NVa-Tyr HCl. Experiments for Gly-Tyr and N-L-NVa-Tyr HCl were repeated at least 3 times, as well as for positive and negative control.
(§1) Viable cell density (VCD = viable cells/mL) and viability were evaluated with a Vi-CELL XR (Beckman Coulter, Fullerton, CA). Metabolite concentrations were monitored using a Cedex Bio HT (Roche Diagnostics, Mannheim, Germany) based on spectrophotometric and turbidometric methods. Quantification of amino acids was carried out via UPLC after derivatization with the AccQ•TagUltra® reagent kit. Derivatization, chromatography and data analysis were carried out following the supplier recommendations (Waters, Milford, MA).

CHOZN GS clone E = assay: Batch cell culture, Tyr replaced by derivative; settings: for titer: after seven days in culture (negative control: maximum titer); for viability: constantly; for maximum VCD: on day seven
Method: (§2) Therefore, cells were cultivated in triplicates or quadruplicates in modified EX-CELL® Advanced HD Perfusion Medium (Merck Darmstadt, Germany) using 50 mL spin tubes with a starting culture volume of 30 mL and a seeding density of 0.3x10^6 viable cells/mL. Incubation was carried out at 37°C, 5% CO2, 80 % humidity and an agitation of 320 rpm. The Tyr derivatives were added in the CCM (modified EX-CELL® Advanced HD Perfusion Medium depleted in Tyr) instead of the canonical amino acid Tyr. The pH of the CCM was neutral (pH 7.3±0.1). […] . No negative control was used for CHOK1 non-GS clone.
as §1, with “turbidimetric” for “turbidometric”

CHOZN GS clone D [1] = assay: Small scale dynamic perfusion culture; settings: for maximum titer: after nine days in culture (negative control: on day six); for maximum VCD: on day 10
[2] = Storage stability of 6-fold concentrated CCM (UPLC amino acid analysis); settings: for stability of 6-fold concentrated CCM: 4°C and RT
Method: […] . The concentration of Tyr, N-L-NVa-Tyr HCl and NVa was determined by amino acid analysis using UPLC. To remove undissolved compound, a filtration step (0.22 µm pore size) was performed prior to amino acid analysis.

CHOZN GS clone C = assay: Batch cell culture, Tyr replaced by derivative; settings: for titer production: after seven days in culture; for viability: constantly, until day six
Method: as §2
as §1, with “turbidimetric” for “turbidometric”

CHOZN GS clone B = assay: Batch cell culture, Tyr replaced by derivative; settings: for viability: constantly; for titer production: on day seven of culture
Method: as §2
as §1, with “turbidimetric” for “turbidometric”

CHOZN GS clone D [3] = assay: Batch cell culture, Tyr replaced by derivative; settings: for titer: after seven days; for viability: constantly, until day six; for maximum VCD: positive control after seven days, N-L-NVa-Tyr HCl on day six
Method: as §2
as §1, with “turbidimetric” for “turbidometric”

CHOZN GS clone A = assay: Batch cell culture, Tyr replaced by derivative; settings: for viability: constantly; for titer production: on day seven
Method: as §2
as §1, with “turbidimetric” for “turbidometric”

CHOK1 non-GS clone = assay: Batch cell culture, Tyr replaced by derivative; settings: for maximum VCD: after seven days in culture; for viability: constantly
Method: as §2
as §1, with “turbidimetric” for “turbidometric”

[4] = Solubility in 6-fold concentrated CCM by turbidity measurement; settings: pH 7.3
From the text: . A solution having a turbidity below 5 NTU is considered soluble. […] . […] Further details can be found in Example 11. • Figures 12, 13 and 14 show features of recombinant proteins. Further details can be found in Example 12. • Figures 15, 16, 17 and 18 show the cell performance of CHOZN GS clone D, CHOZN GS clone F, CHO DG44 and CHOZN GS clone G in dynamic perfusion culture. Further details can be found in Example 13.

[5] = Maximum solubility in water (oversaturated solution, filtration, UPLC amino acid analysis); settings: 25°C, pH 7.3±0.1
Method: The maximum solubility of N-L-norvalyl-L-tyrosine HCl (N-L-NVa-Tyr HCl) was compared with the solubility of canonical amino acid L-Tyrosine (Tyr) and salts thereof in water at 25°C and pH 7.3±0.1 through the preparation of an oversaturated solution. Measurement was performed after a filtration step (0.22µm) to remove undissolved compound. The solution was measured by amino acid analysis using ultra performance liquid chromatography (UPLC).

[6] = Maximum solubility in 6-fold concentrated CCM (oversaturated solution, UPLC)
Method: […] . Samples were taken after 30 minutes of stirring. Measurement was performed after a filtration step (0.22µm) to remove undissolved compound.

CHO DG44 = assay: Small scale dynamic perfusion culture; settings: for maximum titer: after seven days in culture; for maximum VCD: on day six
CHOZN GS clone G = assay: Small scale dynamic perfusion culture; settings: for maximum titer: after nine days in culture; for maximum VCD: on day 10
CHOZN GS clone F = assay: Small scale dynamic perfusion culture; settings: for maximum titer: after nine days in culture; for maximum VCD: on day six
[7] = 6-fold concentrated CCM, RT, light protected

Structure (SMILES): NCC(=O)N[C@@H](Cc1ccc(O)cc1)C(=O)O
cell performance compared to the negative control pTyr 2Na salt (CHOK1 GS clone A; batch): lower

Structure (SMILES): N[C@@H](Cc1ccc(O)cc1)C(=O)N[C@@H](Cc1cnc[nH]1)C(=O)O
cell performance compared to the negative control pTyr 2Na salt (CHOK1 GS clone A; batch): lower

Structure (SMILES): N[C@@H](Cc1ccc(OP(=O)(O)O)cc1)C(=O)O
titer (CHOZN GS clone E): below 100 mg/L
VCD maintained (CHOZN GS clone E; batch): approximately 2.0 x10^6 viable cells/mL
maximum titer (CHOZN GS clone D [1]): 253 ± 3 mg/L
VCD maintained (CHOZN GS clone D [1]; dynamic perfusion): approximately 13 x10^6 viable cells/mL
titer production / maximum IgG concentration (CHOK1 GS clone A; batch): 34 ± 3 mg/L
maximum VCD (CHOK1 GS clone A; batch): 3.8±0.5 x10^6 viable cells/mL

stability of 6-fold concentrated CCM ([2]; light protected, three months): stable
free Tyr / NVa detected ([2]; 4°C, 92 days): No free Tyr nor NVa was detected
stable (concentration constant) for ([2]; 6-fold concentrated CCM, 4°C, light protected): 92 days
stable for [2, 7]: 78 days
free Tyr / NVa detected ([2]; RT, three months): neither free Tyr nor NVa was detected
decrease of concentration of N-L-NVa-Tyr HCl ([2]; three months of storage at room temperature): 10%
decrease in turbidity [4]: more than 95%
maximal solubility [5]: 70.7 ± 0.6 mM
maximum solubility ([6]; 6-fold concentrated modified EX-CELL Advanced HD Perfusion Medium depleted in Tyr, pH 7.3±0.1, 25°C, 30 minutes stirring): approximately 54 mM
times more soluble than Tyr 2Na salt 2H2O ([6]; modified EX-CELL Advanced HD Perfusion Medium depleted in Tyr): at least 18 times
Structure (SMILES): CCC[C@H](N)C(=O)N[C@@H](Cc1ccc(O)cc1)C(=O)O.Cl
titer production (CHOZN GS clone C): 430 mg/L
cell performance compared to the positive control (CHOZN GS clone C; batch): similar
maximum VCD (CHOZN GS clone C; batch): 6.5-8 x10^6 viable cells/mL
viability (CHOZN GS clone C): above 95%
cell performance compared to the positive control (CHOZN GS clone B; batch): similar
maximum VCD (CHOZN GS clone B; batch): 9-10 x10^6 viable cells/mL
viability (CHOZN GS clone B): above 97%
titer production (CHOZN GS clone B): 33 mg/L
titer (CHOZN GS clone D [3]): 609 ± 39 mg/L
cell performance compared to the positive control (CHOZN GS clone D [3]; batch): similar
viability (CHOZN GS clone D [3]): above 95%
maximum VCD (CHOZN GS clone D [3]): 16.9±0.5 x10^6 viable cells/mL
cell performance compared to the positive control (CHOZN GS clone A; batch): similar
maximum VCD (CHOZN GS clone A; batch): approximately 11.0 x10^6 viable cells/mL
viability (CHOZN GS clone A): above 97%
titer production (CHOZN GS clone A): 230 mg/L
maximum VCD (CHOK1 non-GS clone): 15-16 x10^6 viable cells/mL
cell performance compared to the positive control (CHOK1 non-GS clone; batch): similar
increased titer production (CHOK1 non-GS clone; compared to positive control): 23%
viability (CHOK1 non-GS clone): above 95%
titer (CHOZN GS clone E): 597 ± 8 mg/L
cell performance compared to the positive control (CHOZN GS clone E; batch): similar
viability (CHOZN GS clone E): above 98%
maximum VCD (CHOZN GS clone E): 16 x10^6 viable cells/mL
maximum titer (CHOZN GS clone D [1]): 1400 ± 22 mg/L
viability (CHOZN GS clone D [1]; constantly, until day five): above 90%
cell performance compared to the positive control (CHOZN GS clone D [1]; dynamic perfusion): similar
viability (CHOZN GS clone D [1]; from day six): 85 - 90%
maximum VCD (CHOZN GS clone D [1]): 100 x10^6 viable cells/mL
viability (CHO DG44; after day seven): below 90%
maximum titer (CHO DG44): 1360 ± 3 mg/L
viability (CHO DG44; constantly, until day seven): above 90%
cell performance compared to the positive control (CHO DG44; dynamic perfusion): similar
maximum VCD (CHO DG44): 80 x10^6 viable cells/mL
maximum titer (CHOZN GS clone G): 1400 ± 22 mg/L
viability (CHOZN GS clone G; constantly, until day five): above 90%
cell performance compared to the positive control (CHOZN GS clone G; dynamic perfusion): similar
viability (CHOZN GS clone G; from day six): 85 - 90%
maximum VCD (CHOZN GS clone G): 100 x10^6 viable cells/mL
maximum titer (CHOZN GS clone F): 1379 ± 23 mg/L
viability (CHOZN GS clone F; constantly, until day six): above 95%
cell performance compared to the positive control (CHOZN GS clone F; dynamic perfusion): similar
viability (CHOZN GS clone F; from day six): below 90%
maximum VCD (CHOZN GS clone F): 70 x10^6 viable cells/mL
titer production / maximum IgG concentration (CHOK1 GS clone A; batch): approximately 160 mg/L
viability (CHOK1 GS clone A; batch, constantly): above 90%
maximum VCD (CHOK1 GS clone A; batch): 12±1 x10^6 viable cells/mL
VCD and IgG concentration compared to the positive control (CHOK1 GS clone A; seven days batch process): comparable

stability of 6-fold concentrated CCM ([2]; light protected, three months): unstable
stable for [2, 7]: 14 days
decrease in tyrosine concentration after ([2]; liquid media, general statement): about 20 days
Structure (SMILES): N[C@@H](Cc1ccc(O)cc1)C(=O)O
titer production (CHOZN GS clone C): 430 mg/L
maximum VCD (CHOZN GS clone C; batch): 6.5-8 x10^6 viable cells/mL
viability (CHOZN GS clone C): above 95%
maximum VCD (CHOZN GS clone B; batch): 9-10 x10^6 viable cells/mL
viability (CHOZN GS clone B): above 97%
titer production (CHOZN GS clone B): 33 mg/L
titer (CHOZN GS clone D [3]): 668 ± 55 mg/L
viability (CHOZN GS clone D [3]): above 95%
maximum VCD (CHOZN GS clone D [3]): 20±1 x10^6 viable cells/mL
maximum VCD (CHOZN GS clone A; batch): approximately 11.0 x10^6 viable cells/mL
viability (CHOZN GS clone A): above 97%
titer production (CHOZN GS clone A): 230 mg/L
maximum VCD (CHOK1 non-GS clone): 15-16 x10^6 viable cells/mL
viability (CHOK1 non-GS clone): above 95%
titer (CHOZN GS clone E): 685 ± 5 mg/L
viability (CHOZN GS clone E): above 98%
maximum VCD (CHOZN GS clone E): 16 x10^6 viable cells/mL
maximum titer (CHOZN GS clone D [1]): 1425 ± 39 mg/L
viability (CHOZN GS clone D [1]; constantly, until day five): above 90%
viability (CHOZN GS clone D [1]; from day six): 85 - 90%
maximum VCD (CHOZN GS clone D [1]): 100 x10^6 viable cells/mL
viability (CHO DG44; after day seven): below 90%
maximum titer (CHO DG44): 1304 ± 18 mg/L
viability (CHO DG44; constantly, until day seven): above 90%
maximum VCD (CHO DG44): 80 x10^6 viable cells/mL
maximum titer (CHOZN GS clone G): 1425 ± 39 mg/L
viability (CHOZN GS clone G; constantly, until day five): above 90%
viability (CHOZN GS clone G; from day six): 85 - 90%
maximum VCD (CHOZN GS clone G): 100 x10^6 viable cells/mL
maximum titer (CHOZN GS clone F): 1335 ± 38 mg/L
viability (CHOZN GS clone F; constantly, until day six): above 95%
viability (CHOZN GS clone F; from day six): below 90%
maximum VCD (CHOZN GS clone F): 70 x10^6 viable cells/mL
titer production / maximum IgG concentration (CHOK1 GS clone A; batch): approximately 160 mg/L
maximum VCD (CHOK1 GS clone A; batch): 12±1 x10^6 viable cells/mL

Structure (SMILES): O=C(O)[C@H](Cc1ccc(O)cc1)NC(=O)[C@@H]1CCCN1
decrease of titer (CHOK1 GS clone A): over 60%
